The assay concerns the target Sodium-dependent serotonin transporter (Rattus norvegicus, UniProt P31652). Kind of assay: Binding affinity towards serotonin transporter 5-HTT was determined using [3H]paroxetine radioligand. The essentials:
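Competition binding at the 5-HTT with 0.2 nM [3H]paroxetine (final concentration). Other procedures follow earlier published methods.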

Sequences of proteins named here, by UniProt entry; tags and fusion partners are left off.
UniProt P31652, whole entry: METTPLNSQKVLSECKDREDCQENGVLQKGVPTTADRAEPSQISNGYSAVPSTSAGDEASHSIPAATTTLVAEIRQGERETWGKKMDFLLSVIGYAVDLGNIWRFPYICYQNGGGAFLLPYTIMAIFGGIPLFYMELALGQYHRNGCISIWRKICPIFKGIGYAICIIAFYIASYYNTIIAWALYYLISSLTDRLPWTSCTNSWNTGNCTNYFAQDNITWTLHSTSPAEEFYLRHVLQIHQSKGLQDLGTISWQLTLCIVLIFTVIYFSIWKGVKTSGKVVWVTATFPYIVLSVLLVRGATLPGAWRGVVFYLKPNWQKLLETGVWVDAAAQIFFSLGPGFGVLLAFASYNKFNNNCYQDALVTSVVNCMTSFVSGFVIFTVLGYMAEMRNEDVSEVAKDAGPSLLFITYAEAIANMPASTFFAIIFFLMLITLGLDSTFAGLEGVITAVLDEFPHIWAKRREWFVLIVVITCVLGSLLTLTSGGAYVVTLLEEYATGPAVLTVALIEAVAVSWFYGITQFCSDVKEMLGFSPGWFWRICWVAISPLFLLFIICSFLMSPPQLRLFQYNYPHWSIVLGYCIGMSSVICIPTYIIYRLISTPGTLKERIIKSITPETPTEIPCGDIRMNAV

pKi: −log10 of the molar value.

Compound `COC(=O)[C@@H]1C2CC[C@H](C[C@@H]1c1ccccc1)N2C` gave a pKi of 6.74.
With `COC(=O)[C@@H]1C2CC[C@@H](C[C@@H]1OC(=O)c1ccccc1)N2C` (single isomer, unassigned) [COCAINE] the figure was 7.35.

The values are drawn from ChEMBL document CHEMBL1148376, “Synthesis, monoamine transporter binding properties, and behavioral pharmacology of a series of 3beta-(substituted phenyl)-2beta-(3'-substituted isoxazol-5-yl)tropanes” (J Med Chem, 2004).
